Laboratory results taken from PubChem BioAssay AID504700 (The Scripps Research Institute Molecular Screening Center, 2011).
This is a selection; strong and weak results do not stand in their true shares. Active and inactive are the calls of the source.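 The calls were made as follows: active = activation above a cutoff set at the mean over all compounds plus 3 SD (cut at about 18% in these data); inactive = the rest.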

The chains behind the UniProt entries cited, without tags or fusion partners.
UniProt P31323, whole entry, looked up: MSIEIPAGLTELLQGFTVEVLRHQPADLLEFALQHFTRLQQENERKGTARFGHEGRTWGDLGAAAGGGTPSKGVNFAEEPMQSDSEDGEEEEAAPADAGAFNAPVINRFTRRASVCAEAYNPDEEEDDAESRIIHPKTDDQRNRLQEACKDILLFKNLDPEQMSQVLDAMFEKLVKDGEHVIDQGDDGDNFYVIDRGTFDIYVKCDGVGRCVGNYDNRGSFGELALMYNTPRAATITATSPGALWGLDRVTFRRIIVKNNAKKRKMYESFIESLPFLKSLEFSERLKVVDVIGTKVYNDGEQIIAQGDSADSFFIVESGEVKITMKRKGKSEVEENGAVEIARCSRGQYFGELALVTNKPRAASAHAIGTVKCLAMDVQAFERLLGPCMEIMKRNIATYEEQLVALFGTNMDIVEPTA

target: cAMP-dependent protein kinase catalytic subunit beta (Homo sapiens) + cAMP-dependent protein kinase type II-beta regulatory subunit (Homo sapiens) (UniProt P22694+P31323); assay: compounds dissociating PKAc from R2B subunit – biochemical, fluorescence polarization, Cy5-IP20, human, primary screen (AID 504700); conditions: PKA-R2B holoenzyme dissociation, at 11.4 µM, stronger effect = higher value, 0% DMSO only, 100% 113 µM cGMP, R2B truncated from residue 108, S112A mutant;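 also: higher means more holoenzyme dissociation and a rise in polarization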

Compound | activation
O=C(OC1CN2CCC1CC2)C1c2ccccc2C=Cc2ccccc21 (stereo not given) | inactive: 8.32%
CCOC(=O)N1CCC(Nc2ccc(C)cc2)CC1 | inactive: -5.94%
N/C(=N\O)c1c(N)no[n+]1[O-] | inactive: 4.04%
COc1ccc(C(=O)NCC2(N3CCOCC3)CCCCC2)cc1OC | inactive: 2.67%
COc1cc(C(=O)NCC2(N3CCOCC3)CCCCC2)cc(OC)c1C | inactive: -4.95%
O=C(NCC1(N2CCOCC2)CCCCC1)c1cc(Br)ccc1Cl | inactive: -1.52%
CN(C)C1(CNC(=O)c2cccc(C#N)c2)CCCCC1 | inactive: -1.64%
c1ccc(CN2CCC(Nc3ccccc3)CC2)cc1 | inactive: -4.67%
Cc1cc(N(CCCl)CCCl)ccc1C=O | inactive: -7.96%
CCCN1CCC(Nc2cc(OC)cc(OC)c2)CC1 | inactive: -4.68%
N#Cc1ccc(C(=O)NCC2(N3CCCCC3)CCCCC2)cc1 | inactive: -6.7%
CC(C)(C)OC(=O)N1CCC(N(C(=O)c2ccccc2)c2ccc(Cl)cc2)CC1 | inactive: -10.6%
O=C(NCC1(N2CCCCC2)CCCCC1)c1ccco1 | inactive: -3.81%
Cn1c(=O)[nH]cc(N(CCCl)CCCl)c1=O | inactive: 5.4%
CN(C)c1ccc(C(=O)NCC2(N3CCCCC3)CCCCC2)cc1 | inactive: 4.17%
Cc1ccccc1NC1(C#N)CCN(Cc2ccccc2)CC1 | inactive: 2.4%
CCN1CCC(Nc2cccc(F)c2)CC1 | inactive: 1.68%
Cc1ccc(C(=O)NCC2(N3CCCCC3)CCCCC2)o1 | inactive: -3.84%
Fc1ccccc1NC1CCN(Cc2ccccc2)CC1 | inactive: 1.79%
Cc1ccc(NC2(C#N)CCN(Cc3ccccc3)CC2)cc1 | inactive: -0.55%
CC(=O)N(c1ccccc1)C1CCNCC1 | inactive: 1.47%
COc1cc(OC)cc(C(=O)NCC2(N3CCCCC3)CCCCC2)c1 | inactive: 1.89%
CN1CCC(Nc2ccc(Cl)cc2)CC1 | inactive: -0.15%
COc1cccc(C(=O)N(c2cc(C)cc(C)c2)C2CCN(C(=O)OC(C)(C)C)CC2)c1 | inactive: 7.46%
COc1cc(OC)cc(C(=O)NCC2(N3CCOCC3)CCCCC2)c1 | inactive: 6.13%

Compound | activation
CCC(CO)(C(=O)OC1CN2CCC1CC2)c1ccccc1 (stereo not given) | inactive: -1.75%
CC(C)(C)OC(=O)N1CCC(Nc2ccccc2)CC1 | inactive: -11.2%
O=C(O)C1(Nc2ccccc2)CCN(Cc2ccccc2)CC1 | inactive: 3.7%
CCCOc1ccc(C(=O)NCC2(N(C)C)CCCCC2)cc1 | inactive: -8.03%
CCOc1ncccc1C(=O)NCC1(N2CCOCC2)CCCCC1 | inactive: 1.66%
CN1CCC(Nc2ccc(F)c(Cl)c2)CC1 | inactive: 3.3%
O=C(OC1CN2CCC1CC2)C1c2ccccc2Oc2ccccc21 (stereo not given) | inactive: -9.02%
O=C(NCC1(N2CCCCC2)CCCCC1)c1ccc(Cl)s1 | inactive: 7.16%
N#CC1(Nc2ccccc2)CCN(Cc2ccccc2)CC1 | inactive: 9.8%
COc1ccc(Cl)cc1C(=O)NCC1(N2CCOCC2)CCCCC1 | inactive: -6.57%
CCOC(=O)N1CCC(Nc2ccc(OC)cc2)CC1 | inactive: -0.52%
O=C(NCC1(N2CCCCC2)CCCCC1)c1ccc(Cl)nc1 | inactive: 0.75%
Cc1cc(C)cc(N(C(=O)c2ccccc2)C2CCN(C(=O)OC(C)(C)C)CC2)c1 | inactive: 5.73%
O=C(NCC1(N2CCOCC2)CCCCC1)c1cc2ccccc2o1 | inactive: 0.15%
CSc1ccccc1C(=O)NCC1(N2CCCCC2)CCCCC1 | inactive: 6.24%
Cc1cccc(NC2(C#N)CCN(Cc3ccccc3)CC2)c1 | inactive: 1.3%
COc1ccc(C(=O)NCC2(N3CCCCC3)CCCCC2)cc1 | inactive: 1.08%
CC(C)(C)OC(=O)N1CCC(N(C(=O)c2ccccc2)c2ccc(F)cc2)CC1 | inactive: 8.55%
COc1ccc(C(=O)NCC2(N3CCCCC3)CCCCC2)c(OC)c1OC | inactive: -3.47%
O=C(NCC1(N2CCCCC2)CCCCC1)c1ccc(=O)[nH]c1 | inactive: 4.93%
O=C(NCC1(N2CCCCC2)CCCCC1)c1cccs1 | inactive: -2.44%
COc1cc(C(=O)NCC2(N(C)C)CCCCC2)ccc1OC(F)F | inactive: -12.4%
CCOC(=O)N1CCC(Nc2cccc(C)c2)CC1 | inactive: 0.74%
O=C(NCC1(N2CCCCC2)CCCCC1)c1ccc(F)cc1 | inactive: 4.82%
CCCCOc1ccc(C(=O)NCC2(N3CCOCC3)CCCCC2)cc1 | inactive: 4.69%

Compound | activation
O=P1(N(CCCl)CCCl)SCCCS1 | inactive: 3.36%
CCOC(=O)N1CCC(Nc2ccc(F)cc2)CC1 | inactive: -2.74%
COc1ccc(NC2CCN(CCc3ccccc3)CC2)c(OC)c1 | inactive: 4.23%
O=C1CCN(Cc2ccccc2)CC1 | inactive: -1.29%
CCOc1ccc(C)cc1CN(CCCl)CCCl | inactive: 1.93%
O=C(NCC1(N2CCOCC2)CCCCC1)c1cc(=O)[nH]c2ccccc12 | inactive: 6.9%
COc1cc(C(=O)NCC2(N3CCCCC3)CCCCC2)ccc1OC(F)F | inactive: -3.82%
CC(C)c1ccc(C(=O)NCC2(N3CCOCC3)CCCCC2)cc1 | inactive: -7.54%
COc1ccc(NC2CCN(C(=O)OC(C)(C)C)CC2)cc1 | inactive: -3.76%
CN1CCN(CCOC(=O)C(O)(c2ccccc2)c2ccccc2)CC1 | inactive: -18.1%
O=C(NCC1(N2CCCCC2)CCCCC1)c1cccc(C(F)(F)F)c1 | inactive: -7.38%
CCN1CCC(Nc2ccc(Cl)cc2)CC1 | inactive: 1.25%
N#CC1(Nc2ccccc2)CCN(CCc2ccccc2)CC1 | inactive: -2.49%
O=C(NCC1(N2CCCCC2)CCCCC1)c1cccc([N+](=O)[O-])c1 | inactive: -1.55%
CSc1ccc(C(=O)NCC2(N3CCOCC3)CCCCC2)cc1 | inactive: -3.31%
O=C(NCC1(N2CCCCC2)CCCCC1)c1ccc(OC(F)F)cc1 | inactive: -7.85%
Cc1ccc(C(=O)NCC2(N(C)C)CCCCC2)o1 | inactive: -1.64%
CCCOc1ccc(C(=O)NCC2(N(C)C)CCCCC2)cc1OC | inactive: -5.22%
O=C(NCC1(N2CCCCC2)CCCCC1)c1cncc(Br)c1 | inactive: 4.26%
CN1CCC(Nc2cccc(F)c2)CC1 | inactive: 9.7%
COc1cc(OC)c(C(=O)NCC2(N(C)C)CCCCC2)cc1OC | inactive: -5.23%
O=C(NCC1(N2CCOCC2)CCCCC1)c1cc(F)c(F)cc1Cl | inactive: 0.51%
CC(C)c1ccc(NC2CCN(C(=O)OC(C)(C)C)CC2)cc1 | inactive: 1.68%
COc1ccc(CN(CCCl)CCCl)cc1Cl | inactive: -11.2%
CN(C)c1cccc(C(=O)NCC2(N3CCCCC3)CCCCC2)c1 | inactive: -5.41%
